Laboratory results from ChEMBL document CHEMBL5532757, “Design, synthesis, and biological evaluation of 1,2,4-oxadiazole-based derivatives as multitarget anti-Alzheimer agents” (RSC Med Chem, 2024).

The chains behind the UniProt entries cited, without tags or fusion partners.
UniProt P06276, whole entry: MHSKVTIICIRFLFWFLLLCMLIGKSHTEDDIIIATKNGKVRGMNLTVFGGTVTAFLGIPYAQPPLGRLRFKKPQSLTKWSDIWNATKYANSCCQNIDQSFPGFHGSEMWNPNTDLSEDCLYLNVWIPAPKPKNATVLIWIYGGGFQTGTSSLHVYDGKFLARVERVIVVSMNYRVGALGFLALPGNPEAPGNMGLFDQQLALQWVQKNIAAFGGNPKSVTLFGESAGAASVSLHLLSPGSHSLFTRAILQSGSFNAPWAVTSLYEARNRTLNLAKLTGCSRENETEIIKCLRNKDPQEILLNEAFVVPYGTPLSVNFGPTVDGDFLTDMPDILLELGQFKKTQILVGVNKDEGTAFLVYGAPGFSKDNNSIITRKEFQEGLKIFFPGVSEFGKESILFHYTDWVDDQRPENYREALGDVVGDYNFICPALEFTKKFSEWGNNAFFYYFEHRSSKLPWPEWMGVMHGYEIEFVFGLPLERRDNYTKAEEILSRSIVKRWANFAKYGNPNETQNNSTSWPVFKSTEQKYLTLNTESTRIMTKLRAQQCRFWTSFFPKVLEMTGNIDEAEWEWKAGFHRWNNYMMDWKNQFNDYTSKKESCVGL

Target: Cholinesterase (Homo sapiens, UniProt P06276)
Assay: Inhibition of BChE (unknown origin) using butyrylthiocholine iodide as substrate incubated for 15 mins by DTNB reagent based ELISA

Structure (SMILES): CCN(C)C(=O)Oc1cccc([C@H](C)N(C)C)c1 [RIVASTIGMINE]
- IC50: 5.88 µM
